Where two headings read alike, the source gives them in different places.
What was measured:
CCKB receptor = CCKB receptor (Cavia porcellus, UniProt H0VZC5); experiment: 125I-CCK-8 receptor binding assay, CCKB (guinea pig cerebral cortex)
Procedure: CCKA and CCKB receptor binding assays were performed, by using guinea pig cerebral cortex (CCKB) or rat pancreas (CCKA). […]. J. Pharmacol., 269, 249-254]. Pancreatic membranes were prepared in a similar way but by Charpentier et al [(1988), Cyclic cholecystokinin analogues with high selectivity for central receptors., Proc Natl Acad Sci USA, 85, 1968-1972]. The […] CCK binding assay: Tissues were homogenised in ice cold sucrose (0.32 M, 25 ml) for 15 strokes at 500 rpm and centrifuged at 13000 rpm for 10 mins. The supernatant was re-centrifuged at 13000 rpm for 20 mins. The resulting pellet was re-dispersed to the required volume of buffer at 500 rpm and stored in aliquots at […].
The samples were incubated {with membranes (0.1 mg/ml)} in 20 mM Hepes, 1 mM EGTA, 5 mM MgCl2, 150 mm NaCl, 0.25 mg/ml bacitracin at pH 6.5 for 2 hrs at RT and then […] by centrifugation at 1100 rpm for 5 minutes. The membrane pellets were washed twice with water and the bound radioactivity was measured in a Packard Cobra Auto-gamma counter (B5005). All binding assays were carried out with L-363, 260 as an internal non-specific standard. Controls (no compound) were also added. All samples were made in duplicate and repeated twice. All compounds were initially screened for percentage inhibition at 20 μM. […]

Protein sequences, listed by entry. Tags and fused reporters are not part of them. Residues count along the entry.
UniProt H0VZC5, 1-426: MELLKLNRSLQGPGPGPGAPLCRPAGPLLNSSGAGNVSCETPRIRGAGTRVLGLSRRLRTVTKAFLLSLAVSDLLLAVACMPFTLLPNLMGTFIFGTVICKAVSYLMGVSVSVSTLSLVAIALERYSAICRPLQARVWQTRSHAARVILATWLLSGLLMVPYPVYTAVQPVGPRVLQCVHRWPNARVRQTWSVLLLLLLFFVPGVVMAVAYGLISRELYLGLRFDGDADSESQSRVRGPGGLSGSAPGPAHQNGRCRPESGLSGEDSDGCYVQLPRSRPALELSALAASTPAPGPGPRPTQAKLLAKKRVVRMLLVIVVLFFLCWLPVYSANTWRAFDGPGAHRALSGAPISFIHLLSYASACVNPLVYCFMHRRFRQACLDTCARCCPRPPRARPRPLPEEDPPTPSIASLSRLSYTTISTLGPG
UniProt P30551, whole entry: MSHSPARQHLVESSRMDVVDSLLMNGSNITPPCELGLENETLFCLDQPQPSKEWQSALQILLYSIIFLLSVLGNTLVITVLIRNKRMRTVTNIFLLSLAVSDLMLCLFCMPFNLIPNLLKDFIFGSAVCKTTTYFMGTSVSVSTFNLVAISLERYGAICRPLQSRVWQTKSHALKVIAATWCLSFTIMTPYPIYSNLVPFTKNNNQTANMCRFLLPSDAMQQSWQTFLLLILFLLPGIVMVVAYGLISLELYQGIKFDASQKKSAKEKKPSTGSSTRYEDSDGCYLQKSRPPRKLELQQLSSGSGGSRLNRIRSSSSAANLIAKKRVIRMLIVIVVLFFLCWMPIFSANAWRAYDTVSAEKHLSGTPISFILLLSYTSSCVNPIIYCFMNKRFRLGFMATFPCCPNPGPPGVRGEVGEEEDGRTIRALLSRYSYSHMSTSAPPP

CCKA receptor = CCKA receptor (Rattus norvegicus, UniProt P30551); experiment: 125I-CCK-8 receptor binding assay, CCKA (rat pancreas)

SMILES	IC50 (CCKB receptor; read-out: CCKB IC50, Table 1) [nM]	IC50 (CCKB receptor; read-out: IC50 CCKB, Table 3) [nM]	Ratio CCKB:CCKA (CCKA receptor; Table 3, ratio of IC50 values)	IC50 (CCKA receptor; read-out: IC50 CCKA) [nM]
O=C1Nc2ccc(Cl)cc2C(c2ccccc2)=NC1Nc1cc2ccc3cccc4ccc(c1)c2c34 (stereo not shown)	840			
Cc1cccc(NC2N=C(c3ccccc3)c3cc(Cl)ccc3NC2=O)c1 (stereo not shown)		3800	380	11
